The values below are quoted from earlier work in PMC5671894 (Journal of biological inorganic chemistry : JBIC : a …, 2017).

Structures are written as SMILES.

The target in this data set is PTP1B. Conditions: competitive inhibitor; cited from earlier work.

In the case of `[O]=[V]([OH])([OH])[OH]` [orthovanadate], the Ki (commonly the dissociation constant of the complex between target and ligand, obtained from inhibition or displacement) was approximately 300 nM.
